Source: patent US12195437B2, “Lipophenolic flavonoid derivatives useful to reduce carbonyl and oxidative stresses (COS)” (Centre National de la Recherche Scientifique (CNRS), priority 2018, dated 2025)

System: ARPE-19 cells
Test: Cytotoxicity of lipophenols on ARPE-19 cells (MTT)
Type: cell-based
Conditions: 24 h, concentrations up to 160 μM
Experimental: Cell viability was determined by MTT colorimetric assay. Cells were incubated for 2 h with MTT reagent (0.5 mg/mL). During this incubation time, dehydrogenases of living cells reduced MTT to insoluble purple formazan, which was then dissolved in DMSO. The absorbance at 570 nm and 655 nm of individual wells was measured using a microplate reader (BioRad 550). The percentage of viable cells was calculated as [(OD570 sample−OD655 sample)/(OD570 control−OD655 control)]×100%.
ARPE-19 cells were plated into 96-well plates (4×10^4 cells/well) and cultured for 24 h to reach confluence before lipophenol treatment. […] Control cells were incubated with DMSO (0.2%). The viability of the cells was determined using a MTT colorimetric assay. All samples are expressed as percentage of viability compared to non-treated control cells (normalized at 100% survival).
Results on the measurement of lipophenol toxicity will be discussed in % cell survival at a given lipophenol concentration compared to untreated cells. […] Any concentration of lipophenol resulting in cell survival of less than 5% (zero survival) will be considered a highly toxic concentration.

## (+)-catechin [reference compound]
  toxicity (in words): no toxicity
